Binding of CDR-mutated scFvs to a peptide of the spike HR2 region

Data: MIT Lincoln Laboratory AlphaSeq set, Li et al. 2023, doi:10.1038/s41467-023-39022-2, as distributed in FLAb.

Binding partner: SARS-CoV-2 spike HR2 peptide, sequence PDVDLGDISGINAS.

The variants keep the heavy chain, the linker and the frameworks of Ab-14 (scFv order VH, a 15-residue (Gly4Ser)3 linker, VL).
VH: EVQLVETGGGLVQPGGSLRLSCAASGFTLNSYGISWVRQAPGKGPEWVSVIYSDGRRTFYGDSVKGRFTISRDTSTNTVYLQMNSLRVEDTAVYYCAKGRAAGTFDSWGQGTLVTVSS
VL: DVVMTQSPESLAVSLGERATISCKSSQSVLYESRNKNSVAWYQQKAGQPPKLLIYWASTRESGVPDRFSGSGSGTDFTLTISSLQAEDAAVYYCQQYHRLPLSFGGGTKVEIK

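The parent was found by panning a naive human phage display library on the peptide. These sequences belong to a second round, designed from the earlier measurements on random variants of the parent. Their group label is 14L_GP_Gibbs (GP: Gaussian process model; Gibbs: Gibbs sampling; a sequence that several methods proposed may carry one label only). AlphaSeq pools MATa yeast showing the antibodies with MATalpha yeast showing the peptide. After mating in shaken culture at 30 °C for 16 h, diploids were selected and their barcode pairs sequenced. A regression on co-assayed BCL2-family reference pairs converts the normalised counts of each replicate to an apparent Kd. Each pool was mated in six replicate cultures.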

The parent's light chain CDRs are KSSQSVLYESRNKNSVA, WASTRES, QQYHRLPLS; each variant's own CDRs replace them letter for letter. Numbers give log10(Kd / nM), so 0 is 1 nM and 3 is 1 µM. Smaller is tighter. The parent sequence was in this pool as ten entries: three were never detected, three once, and four in most replicates, with averages from 0.34 to 2.37.

| CDR-L1 | CDR-L2 | CDR-L3 | log10 Kd, replicates | empty controls |
|---|---|---|---|---|
| KMMQQQLYEDRMSNAVA | NASQRES | QQYHRLPLS | -0.14 -0.30 0.20 0.12 -0.11 -0.08 | 0 of 18 |
| KVSPSWLGEMRNDNSVA | NASTRRS | QQYHRLPLS | 1.57 0.94 0.87 0.60 0.66 0.81 | 0 of 18 |
| KLSFSVGGESRNKNSVA | DAGTRES | QQYHRLPLS | -0.26 -0.37 -0.23 -0.24 -0.31 -0.22 | 1 of 18 (2.52) |
| KWSCSQLYDSQNKNSVA | NASTRMM | QQYHRLPLS | 0.01 -0.31 -0.06 -0.15 -0.32 -0.18 | 0 of 18 |
| ILSASELYEDRMKNSVA | NASQRES | QQYHRLPLS | 0.35 0.26 0.10 0.03 0.08 0.49 | 0 of 18 |
| KVSQMQPYEERNKNNVA | MASTRMS | QQYHRLPLS | -0.12 -0.09 -0.13 -0.12 -0.26 0.02 | 2 of 18 (2.11) |
| KLSQSELYESRCHNNVA | NASQRES | QQYHRLPLS | 0.76 0.18 0.33 0.22 0.45 0.60 | 1 of 18 (4.69) |
| KVMQSVLYESRNVNNVA | NGSTRES | QQYHRLPLS | -0.01 0.09 -0.10 -0.33 -0.21 -0.06 | 2 of 18 (3.09) |
| KLAQSDLYESRNFNSVA | AASTRES | QQYHRLPLS | 0.74 0.73 0.57 0.53 0.46 0.85 | 0 of 18 |
| KISQSMEYESRNVNSVA | NASTREV | QQYHRLPLS | 0.17 -0.20 -0.08 -0.12 0.09 -0.02 | 1 of 18 (2.90) |
| KVSVSQDYESRNKNSVA | NASTREE | QQYHRLPLS | 0.02 0.08 0.09 -0.13 -0.03 0.22 | 1 of 18 (2.70) |
| KLSQSMLYESRNHNNVA | AASDRES | QQYHRLPLS | -0.29 -0.54 -0.61 -0.60 -0.82 -0.54 | 1 of 18 (2.84) |
| FLMQSWDYESRPKNSVA | NASTRMS | QQYHRLPLS | 0.80 0.71 0.68 0.51 0.26 0.89 | 1 of 18 (2.17) |
| KMMQQQLYEDRNSNAVA | NASQRES | QQYHRLPLS | 0.94 0.09 0.81 0.84 0.90 0.48 | 2 of 18 (1.96) |
| KLQTSWLYEKRNKNSVA | QASQRES | QQYHRLPLS | 0.40 0.13 0.17 0.45 0.49 0.31 | 0 of 18 |
| ALSMSELMESRNWNSVA | HANTREE | QQYHRLPLS | -0.14 -0.17 -0.33 -0.38 -0.13 -0.02 | 2 of 18 (3.55) |
| KLSQSVGYESRMVNNVA | NASTRED | QQYHRLPLS | -0.07 -0.13 -0.18 -0.23 -0.08 -0.12 | 2 of 18 (2.97) |
| KQQQGQDYESRNDNSVA | DASLRES | QQYHRLPLS | 0.46 0.12 0.07 -0.17 0.17 0.21 | 1 of 18 (1.47) |
| KCQQSSDYESRNFNSVA | NASTRCS | QQYHRLPLS | 0.31 0.37 0.52 0.31 0.40 0.76 | 1 of 18 (2.82) |
| KVSMLDDGGDRNKNSVA | HASTRES | QQYHRLPLS | 0.06 -0.04 -0.12 -0.16 -0.16 0.06 | 0 of 18 |
| KVSQAQDYESRNKNSVA | QASHREQ | QQYHRLPLS | 0.72 0.10 0.38 0.60 0.20 0.62 | 1 of 18 (1.60) |
| KVSQSNLGESRMKNSVA | HASQRES | QQYHRLPLS | 0.13 -0.04 0.31 -0.02 0.55 0.12 | 1 of 18 (2.95) |
| KLEQSELYESRNPQSVA | NASERES | QQYHRLPLS | -0.26 0.10 -0.35 -0.48 0.19 0.09 | 0 of 18 |
| KLSMSDLYESRNGNSVA | MASTREK | QQYHRLPLS | 0.52 0.03 -0.02 -0.04 -0.05 0.36 | 1 of 18 (2.77) |
| KLEQSMLYESRNSNSVA | NASTRMH | QQYHRLPLM | -0.20 0.02 -0.03 -0.27 -0.23 0.30 | 1 of 18 (1.73) |
| KLVNSELYESRQKNSVA | NASQREM | QQYHRLPLS | 0.22 0.17 0.07 0.04 0.43 0.16 | 1 of 18 (3.31) |
| WISQSVEYESRDKNSVA | NASTRES | QQYHRLPLS | 0.89 0.81 0.41 0.65 0.43 0.91 | 0 of 18 |
| VLSASELYEDRPKNSVA | NASTRES | QQYHRLPLS | 0.03 -0.19 -0.24 -0.36 0.05 -0.13 | 0 of 18 |
| YLSQSVQYESRNKNSVA | SASTREY | QQYHRLPLA | -0.14 -0.03 -0.05 -0.58 -0.53 -0.15 | 0 of 18 |
| KVSQSVGYGSRNKNSVA | EASTRES | QQYHRLPLS | 0.74 0.53 0.21 1.34 0.12 0.28 | 0 of 18 |
| KLSQSVEQLSRNKNSVA | MASQREV | QQYHRLPLS | 0.34 0.05 0.17 -0.18 -0.20 0.13 | 0 of 18 |
| KLVQSELYESRNKNNVA | AASQRES | QQYHRLPLS | -0.37 -0.40 -0.38 -0.48 -0.18 -0.14 | 1 of 18 (1.87) |
| VLQQSGLYESRNKNSVA | SASTRLP | QQYHRLPLS | 0.35 0.18 0.18 0.13 0.18 0.30 | 4 of 18 (3.42) |
| KLQQLGLYEQRNLNSVA | SASTRCS | QQYHRLPLS | 0.75 0.85 0.99 0.74 0.78 0.70 | 0 of 18 |

A selection of 5 entries from above:

| CDR-L1 | CDR-L2 | CDR-L3 | log10 Kd, replicates | empty controls |
|---|---|---|---|---|
| VLQQSGLYESRNKNSVA | SASTRLP | QQYHRLPLS | 0.35 0.18 0.18 0.13 0.18 0.30 | 4 of 18 (3.42) |
| KLAQSDLYESRNFNSVA | AASTRES | QQYHRLPLS | 0.74 0.73 0.57 0.53 0.46 0.85 | 0 of 18 |
| ILSASELYEDRMKNSVA | NASQRES | QQYHRLPLS | 0.35 0.26 0.10 0.03 0.08 0.49 | 0 of 18 |
| KVSVSQDYESRNKNSVA | NASTREE | QQYHRLPLS | 0.02 0.08 0.09 -0.13 -0.03 0.22 | 1 of 18 (2.70) |
| KLVQSELYESRNKNNVA | AASQRES | QQYHRLPLS | -0.37 -0.40 -0.38 -0.48 -0.18 -0.14 | 1 of 18 (1.87) |

In the paper, a design with two or fewer of six values counts as a poor binder. Three control strains display no target. For all light chain designs, 4% of the pairings with them gave a signal, with a median of 2.64 and one signal in twenty below 1.59, so weak values seen in few replicates may be background. Also given: how often the same scFv was detected with the empty control strains, with their mean in brackets. Values of this round are not directly comparable with the first-round values of the same sequences.